The chains behind the UniProt entries cited, without tags or fusion partners. A line that says so, or that is headed by a name, gives the form on record, which may keep a tag or linker. Residues count along the entry.
UniProt Q9NRM0, 51-540 with tags or gaps limits assumed: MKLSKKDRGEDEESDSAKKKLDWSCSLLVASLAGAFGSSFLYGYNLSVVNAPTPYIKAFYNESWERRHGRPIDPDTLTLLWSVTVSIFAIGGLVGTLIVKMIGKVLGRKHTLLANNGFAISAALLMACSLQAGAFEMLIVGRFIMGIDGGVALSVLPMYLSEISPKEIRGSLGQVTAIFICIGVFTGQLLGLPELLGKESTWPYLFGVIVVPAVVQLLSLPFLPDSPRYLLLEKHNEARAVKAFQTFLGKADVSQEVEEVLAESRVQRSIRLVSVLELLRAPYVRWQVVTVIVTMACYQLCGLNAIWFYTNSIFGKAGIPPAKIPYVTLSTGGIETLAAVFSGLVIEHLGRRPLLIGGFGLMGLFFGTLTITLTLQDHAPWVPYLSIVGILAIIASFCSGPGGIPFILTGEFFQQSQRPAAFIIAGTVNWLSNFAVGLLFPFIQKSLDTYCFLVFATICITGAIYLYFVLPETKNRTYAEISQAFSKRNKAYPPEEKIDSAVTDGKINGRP

This experiment addresses human GLUT9 (Homo sapiens (Human), UniProt Q9NRM0). Briefly: Evaluation of human GLUT9 inhibitory activity ([14C] uric acid uptake in human GLUT9 expressing HEK293T cells transduced with Uricase/Hyper). Conditions: read-out: humans GLUT9 inhibitory activity (IC50 value (μM)), final 300 μM uric acid, 6 min, human GLUT9 stably expressing HEK293T cells.
The term IC50 denotes the point on the concentration scale where inhibition reaches its midpoint. On to `COCCCc1cnc(-c2ccc(OC)cc2)c(-c2ccc(CCC(=O)O)cc2)c1`, for which the IC50 worked out at 0.0918 µM.
Regarding `CCCCc1cnc(-c2ccc(CC)cc2)c(-c2ccc(C(=O)O)cc2)n1`, the IC50 was 0.141 µM.
Take `CCCCc1cnc(-c2ccc(OC)c(C)c2)c(-c2ccc(C(=O)O)cc2)n1`: the IC50 was found to be 0.15 µM.
Turning to `CCCCc1cnc(-c2ccc(C)cc2)c(-c2ccc(C(=O)O)cc2)n1`, the concentration for half-maximal inhibition (IC50) is 0.341 µM.

Values taken from US10752596B2, “Nitrogen-containing heteroaryl compound and pharmaceutical use thereof” (JAPAN TOBACCO INC., priority 2017, dated 2020).
